Results on one molecule are retold here after patent publication US8895313B2, “Ligands for aggregated tau molecules” (Wista Laboratories Ltd., priority 2008, dated 2014).

Chains of the proteins cited; added tags and fusions are not shown. Residues count along the entry.
UniProt P10636, 623-708 limits assumed: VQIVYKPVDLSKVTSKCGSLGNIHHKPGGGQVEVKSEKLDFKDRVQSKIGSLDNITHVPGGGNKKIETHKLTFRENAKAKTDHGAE

For this test, the target named is PHF (paired helical filaments) isolated from the brain of an Alzheimer's disease patient (Homo sapiens, UniProt P10636). The test is described as follows: Competitive binding assay: displacement of primulin fluorescence from PHFs. As to conditions: read-out: P50; value in brackets: measured in 10% DMSO; reference ligand; tested form: Na salt. As for the experimental part:
The DSB compounds were tested for their ability to bind to PHF in a competition-style assay.
If a test compound that also binds to PHFs with the same or greater affinity is added, it will displace the reference ligand and reduce the fluorescence signal. In the present assay, the reference compound is primulin, which was added at 1 μM. Test compounds were added at concentrations from 0.05 to 1 μM. The P50 for a test compound is defined as the concentration of compound that reduces the primulin signal to 50% of the control value. This value is, therefore, not an absolute affinity, but a relative affinity compared to the affinity of primulin. […]
The assay for ligand activity was performed in 96 well plates (Nunc Cat. No. 236108). […] The concentration of PHFs added was determined for each preparation to give an adequate fluorescence signal, and was typically in the range 1-2 μl/100 μl. […] The control fluorescence, in the absence of PHFs, was also measured in the presence of 10% DMSO.
The fluorescence was measured in a Varian Carey Eclipse Fluorescence Spectrophotometer, with the […] wavelength at 480 nm. Excitation spectra were recorded and corrected by subtraction of the signal measured in the absence of PHFs, using the Varian software. The fluorescence signal at the peak […] wavelength of 420 nm was measured from the corrected spectra. […]

`Cc1ccc2nc(-c3ccc4nc(-c5ccc(N)cc5)sc4c3)sc2c1S(=O)(=O)O`: the IC50 turned out to be 1000 nM.
